Measured values published in patent publication US10071965B2, “Pyridone FabI inhibitors and uses thereof” (priority 2015, dated 2018).

What was measured:
saFabI = saFabI (Staphylococcus aureus (strain MRSA252), UniProt Q6GI75); conditions: read-out: Ki^app, [S]/KS = 2, binds to the E-NADP+ binary complex, from Ref 31; cited from earlier work
ecFabI = ecFabI (Escherichia coli (strain K12), UniProt P0AEK4); test: ecFabI inhibition kinetics; assay type: biochemical; conditions: single point progress curve analysis

SMILES: CCc1ccc(Oc2ccccc2)c(O)c1 [PT01, 5-ethyl-2-phenoxyphenol]
- Ki (saFabI): 121 ± 10.1 nM
- Ki (ecFabI; Ki (nM), binds E-NAD+ binary complex): 0.2 nM
- Ki (ecFabI; [S]/KS = 0.19, binds E-NAD+ binary complex, read-out: Ki^app): 33.6 nM

Like-named read-outs stand apart in the source and are kept apart here.
